A word on the inhibition: it is the change of the read-out against control, counted positive when it falls.

The list shows a part of the results, in another mix than the full data. Results with a measured potency or affinity are listed apart. Active and inactive are the calls of the source.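 The calls were made as follows: active = inhibition over 29.93%, a cutoff 3 SD above the screen mean, later confirmed by dose response; inconclusive = inhibition over 29.93% but no dose response follow-up; inactive = inhibition at most 29.93% or unconfirmed.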

This passage reports inhibition results from PubChem BioAssay AID1863 (Southern Research Specialized Biocontainment Screening …, 2009).

This experiment in a line: inhibitors of PhoP regulon expression, primary screen, Salmonella Typhimurium, GFP reporter (AID 1863).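 Also: 0% = low Mg2+ inducing control and 100% = high Mg2+ repressing control.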 Particulars: S. Typhimurium PhoP-regulated promoter GFP reporter, 4 h; at 50 µM; stronger effect = higher value.
As for `CN(C(=O)Cc1ccccc1)[C@@H]1CC[C@]2(CCCO2)C[C@H]1N1CCCC1`, the inhibition is inactive: -2.71%.
Then `O=[As](O)(O)c1cccnc1`, with inactive: -1.23%; and `COc1cc(C(=O)NCC2(N3CCOCC3)CCCCC2)cc(Cl)c1OC(C)C`, with inactive: 5.56%.
To `CS(=O)(=O)c1ccc(Cl)c(NC(=O)COC(=O)C(O)(c2ccccc2)c2ccccc2)c1` belongs inactive: 1.76%; to `O=C(OC1CN2CCC1CC2)c1ccc(Cl)cc1` (centres undefined), inactive: -7.28%.
With `Cc1cccc(OCC(=O)OC2CN3CCC2CC3)c1` (centres undefined), the inhibition is inactive: -2.64%.
To `O=[As](O)(c1cccc(O)c1)c1cccc(O)c1` belongs inactive: 0.97%; to `CCCOP(=S)(Nc1nc(N)cc(=O)[nH]1)OCCC`, inactive: -2.5%.
Then `Nc1cccc2c([As](=O)(O)O)cccc12`, with inactive: -15%.
To `Cc1ccc(NCCc2c([N+](=O)[O-])cc([N+](=O)[O-])cc2[N+](=O)[O-])cc1` belongs inactive: 16.5%; to `COc1cc(C2NCCC3(OCCO3)C2(C)C)cc(OC)c1OC` (centres undefined), inactive: 0.2%.
In the case of `CCOP(=O)(Nc1cccc2ccccc12)OCC`, the inhibition was inactive: 0.89%.
`O=C(OC1CN2CCC1CC2)C12CC3CC(CC(C3)C1)C2` (centres undefined): the inhibition is inactive: 4.95%.
Then `Cc1cc(=O)[nH]c(N[N+](=O)[O-])n1`, with inactive: -14.1%; and `Cc1c2c(nc3ccccc13)SC(C(Cl)Cl)C2` (centres undefined), with inactive: 2.15%; and `COc1ccc2nc(NP(=O)(c3ccccc3)c3ccccc3)sc2c1`, with inactive: 3.27%.
For the compound `COc1cc(I)ccc1[As](=O)(O)O`, the inhibition was inactive: -9.19%.
Then `COc1ccc(N/C(=N/P(=O)(N2CCOCC2)N2CCOCC2)N2CCOCC2)cc1`, with inactive: 1.59%; and `C[As](=O)(O)c1cccc(C(=O)O)c1`, with inactive: 1.04%.
To `O=[As](O)(c1ccc(O)cc1)c1ccccc1O` belongs inactive: 4.32%; to `Cc1ccc2nc3c(c(C)c2c1)CC(C(Cl)Cl)S3` (centres undefined), inactive: -3.7%; to `Cc1ccc(OP(=O)(Nc2ccc([N+](=O)[O-])cn2)Oc2ccc(C)cc2)cc1`, inactive: -1.19%.
In the case of `CC(C)c1ccc(OP(=O)(Nc2ccccn2)Oc2ccccc2F)cc1` (centres undefined), the inhibition is inactive: -4.49%.
Then `ClCCSc1nnc(-c2cccnc2)o1`, with inactive: 1.44%; and `CC(C)NC(=O)NP(=O)(Oc1ccccc1)Oc1ccccc1`, with inactive: -0.14%.
As to `CCN(CC)C(=S)SC(NC=O)C(Cl)(Cl)Cl` (centres undefined), the inhibition is inactive: 5.04%.
Regarding `O=[N+]([O-])c1cc([N+](=O)[O-])c(-c2ccn[nH]2)s1`, the inhibition is inactive: -20.2%.
To `CCOC(=O)Nc1ccc([As](=O)(O)O)c(O)c1` belongs inactive: -10.9%.
As to `Cc1cc(SC(NC(=O)c2ccccc2)C(Cl)(Cl)Cl)nc(C(C)C)n1` (centres undefined), the inhibition is inactive: -0.35%.
Then `CCOC(=O)Nc1cccc([As](=O)(O)O)c1`, with inactive: 12.1%.
For the compound `O=[N+]([O-])c1ccc(Nc2ccc(Oc3ccc([N+](=O)[O-])cc3[N+](=O)[O-])cc2)c([N+](=O)[O-])c1`, the inhibition is inactive: -3.83%.
To `Cc1cc(SC(NC=O)C(Cl)(Cl)Cl)ncn1` (centres undefined) belongs inactive: 0.99%; to `O=P(Nc1ccccn1)(c1cccc2ccccc12)c1cccc2ccccc12`, inactive: -5.44%.
Then `COP1(=S)c2c(C)nn(CCC#N)c2N=C(c2ccc(F)cc2)N1C` (centres undefined), with inactive: 14.1%; and `O=C(COc1ccccc1)OC1CN2CCC1CC2` (centres undefined), with inactive: -1.03%; and `O=C(Nc1ccncc1[N+](=O)[O-])c1ccc([N+](=O)[O-])cc1[N+](=O)[O-]`, with inactive: 3.75%.
Then `CCOC(=O)c1ccc(NC(=O)C(C)(CCl)SC)cc1` (centres undefined), with inactive: -3.91%; and `O=C(OC1CN2CCC1CC2)c1cccc([N+](=O)[O-])c1` (centres undefined), with inactive: 1.09%; and `CCC(C)N(CC(C)C)C(=S)SC(NC(C)=O)C(Cl)(Cl)Cl` (centres undefined), with inactive: -8.55%.
